According to patent US8080632B2, “Peptide mimics of melanocyte stimulating hormone” (The Feinstein Institute for Medical Research, priority 2005, dated 2011):

Assay: Stability in vivo

CC[C@H](C)[C@H](NC(=O)[C@@H](NC(=O)[C@H](C)NC(=O)[C@H](CCC(N)=O)NC(=O)[C@H](C)NC(=O)[C@@H](NC(=O)[C@H](CC(N)=O)NC(=O)[C@H](CO)NC(=O)[C@@H]1CCCN1C(=O)[C@H](C)NC(=O)[C@H](CCC(=O)O)NC(=O)[C@H](CC(=O)O)NC(=O)[C@H](Cc1ccc(O)cc1)NC(=O)[C@H](CCCCN)NC(=O)[C@H](CC(C)C)NC(=O)[C@H](Cc1ccccc1)NC(=O)[C@H](CCC(=O)O)NC(=O)[C@H](CCSC)NC(=O)[C@@H](NC(=O)[C@H](Cc1ccc(O)cc1)NC(=O)[C@H](CO)NC(=O)[C@H](C)NC(=O)[C@H](CCCNC(=N)N)NC(=O)CNC(=O)[C@H](CCCCN)NC(=O)[C@@H](NC(=O)[C@H](CC(C)C)NC(=O)[C@@H](N)CO)[C@@H](C)O)[C@@H](C)O)C(C)C)C(C)C)C(=O)N[C@@H](CCC(=O)O)C(=O)N[C@@H](C)C(=O)N[C@@H](CCCNC(=N)N)C(=O)NCC(=O)N[C@@H](CCCCN)C(=O)O
stability in vivo: quite stable in vivo
